Measurements reported in patent publication US8933079B2, “Pyridone and pyridazinone derivatives as anti-obesity agents” (Boehringer Ingelheim International GmbH, priority 2012, dated 2015).
pIC50: −log10 of the molar value.

By UniProt entry, the sequences of proteins in these tests, tags left out.
UniProt Q99705, whole entry: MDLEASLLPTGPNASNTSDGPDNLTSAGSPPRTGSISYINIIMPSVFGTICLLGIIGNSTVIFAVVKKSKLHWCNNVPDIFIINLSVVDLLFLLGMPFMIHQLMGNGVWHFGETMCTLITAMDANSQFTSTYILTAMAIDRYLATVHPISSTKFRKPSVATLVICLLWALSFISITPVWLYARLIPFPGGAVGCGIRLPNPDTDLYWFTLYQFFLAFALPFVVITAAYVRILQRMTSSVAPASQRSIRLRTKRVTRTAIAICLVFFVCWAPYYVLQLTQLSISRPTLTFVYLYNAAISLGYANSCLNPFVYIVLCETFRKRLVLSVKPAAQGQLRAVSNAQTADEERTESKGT

Target: hMCH-1R (Homo sapiens (Human), UniProt Q99705)
Experiment: MCH-1 receptor binding test (125I-MCH binding to hMCH-1R transfected cell membranes)
Conditions: competition with 100 pM 125I-MCH, membranes of CHO/Galpha16 cells stably transfected with hMCH-1R

With `Cc1cc(CN2CCCC2C)ccc1C(=O)Cn1ccc(OCc2ccc(Br)cn2)cc1=O` (centres unmarked) the pIC50 was 7.85.
Molecule `Cc1cc(CN2C[C@@H](C)O[C@@H](C)C2)ccc1C(=O)Cn1ncc(OCc2ccccc2)cc1=O` has a pIC50 of 7.46.
